{"sequences": {"note": "Sequences of proteins named here, by UniProt entry; tags and fusion partners are left off.", "UniProt P08515, whole entry": "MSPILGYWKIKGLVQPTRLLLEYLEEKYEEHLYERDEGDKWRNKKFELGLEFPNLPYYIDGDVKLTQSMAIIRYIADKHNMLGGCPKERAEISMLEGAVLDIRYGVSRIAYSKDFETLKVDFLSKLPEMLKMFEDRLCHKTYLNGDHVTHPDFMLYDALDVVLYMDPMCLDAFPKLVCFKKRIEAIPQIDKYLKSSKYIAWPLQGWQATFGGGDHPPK"}, "source": "paper PMC3196589", "about": "“Fluorescent Peptide Biosensor for Probing the Relative Abundance of Cyclin-Dependent Kinases in Living Cells” (PLoS ONE, 2011)", "key": {"GST": {"biological_target": "GST (Schistosoma japonicum, UniProt P08515)", "experiment": "Steady-state fluorescence titration of FITC-labelled peptide (specificity control)", "type": "binding", "conditions": "200 nM FITC-labelled peptide, potassium phosphate buffer pH 7.2, 150 mM NaCl, 25°C"}, "MBP": {"biological_target": "MBP (Escherichia coli, UniProt P0AEX9)", "experiment": "Steady-state fluorescence titration of FITC-labelled peptide (specificity control)", "type": "binding", "conditions": "200 nM FITC-labelled peptide, potassium phosphate buffer pH 7.2, 150 mM NaCl, 25°C"}, "MBP-Cyclin B1": {"biological_target": "MBP-Cyclin B1 (Homo sapiens, UniProt P14635)", "conditions": "relative to other cyclins"}, "[1]": {"biological_target": "recombinant CDKs and cyclins", "experiment": "Fluorescence titration with recombinant CDKs and cyclins (summary statements)", "type": "binding", "conditions": "FITC label, from titration curves, read-out: Dissociation constant, CDKs (range)"}, "[2]": {"tested_on": "endogenous CDK/Cyclin complexes from HS68 cell extracts", "experiment": "Pulldown from cell extracts with immobilized peptide", "type": "binding, human", "conditions": "Western blotting", "experimental": "Cell culture media, serum and antibiotics were purchased from Invitrogen. HeLa, HS68, A549, MCF-7 and U2OS cells were obtained from ATCC and were cultured in Dulbecco's Modified Eagle Medium (DMEM)+Glutamax supplemented with 10% Fetal Calf Serum (FCS), 1 mM penicillin and 1 mM streptomycin at 37°C in an atmosphere containing 5% CO2. HT2-19 cells, provided by Dr. A.Porter, were cultured in DMEM supplemented with non essential amino acids, antibiotics, sodium pyruvate, glutamine, and 10% FCS and grown with 50 uM isopropyl-thiogalactoside (IPTG) for maximal induction of CDK1 [28]. Cell extracts were prepared in lysis buffer containing 50 mM TrisHCl, pH 7.4, 150 mM NaCl, 0.1% NP40, 0.1% Deoxycholate, 2 mM EDTA, 1 mM phenylmethlsulfonyl fluoride (PMSF), CompleteTM protease inhibitors (Roche), 50 mM NaF, 40 mM β-Glycero-phosphate, 1 mM Na3VO4 and normalized following spectrophotometric dosage at 280 nm. For pulldown experiments, CDKSENS or Ctrl peptide were crosslinked to CNBr Sepharose beads, then incubated with equal concentrations of HeLa cell extracts for 1 hr. Samples were then processed for SDS-PAGE and CDK, Cyclin retention was detected by Western blotting. […]"}, "[3]": {"tested_on": "CDK/Cyclins in U20S cells", "experiment": "Live-cell ratiometric quantification of CDKSENS-Cy3/Ctrl-Cy5 fluorescence", "type": "cell-based", "conditions": "U20S compared to HeLa", "experimental": "Cell culture media, serum and antibiotics were purchased from Invitrogen. HeLa, HS68, A549, MCF-7 and U2OS cells were obtained from ATCC and were cultured in Dulbecco's Modified Eagle Medium (DMEM)+Glutamax supplemented with 10% Fetal Calf Serum (FCS), 1 mM penicillin and 1 mM streptomycin at 37°C in an atmosphere containing 5% CO2. HT2-19 cells, provided by Dr. A.Porter, were cultured in DMEM supplemented with non essential amino acids, antibiotics, sodium pyruvate, glutamine, and 10% FCS and grown with 50 uM isopropyl-thiogalactoside (IPTG) for maximal induction of CDK1 [28]. […] Samples were then processed for SDS-PAGE and CDK, Cyclin retention was detected by Western blotting. […]\nCDKSENS-Cy3 and Ctrl-Cy5 were complexed individually with CADY2 and codelivered into cells. Live-cell imaging acquisitions were substracted for background signal corresponding to minimal fluorescence levels using Metamorph. […] Regions of interest (ROI) corresponding to 10–15 cells in which fluorescence appeared homogeneous were designed and the mean grey levels of fluorescence for each channel (Cy3 and Cy5) were quantified within these ROIs. For each experiment, and the mean ratiometric value of CDKSENS-Cy3/Ctrl-Cy5 was calculated from 3–4 different ROIs. Each experiment was performed 3–4 times to assess the robustness of the quantification strategy. […]"}, "GST-CDK2/Cyclin A": {"biological_target": "T1, GST-CDK2/Cyclin A (Homo sapiens, UniProt P20248+P24941)", "T1 construct": "made in house; host or cells: E. coli", "experiment": "Steady-state fluorescence titration of FITC-labelled peptide", "type": "binding", "conditions": "comparison in words"}, "GST-CDK2": {"biological_target": "T2, GST-CDK2 (Homo sapiens, UniProt P24941)", "T2 construct": "made in house; host or cells: E. coli", "experiment": "Steady-state fluorescence titration of FITC-labelled peptide", "type": "binding", "conditions": "200 nM FITC-labelled peptide, potassium phosphate buffer pH 7.2, 150 mM NaCl, 25°C, ex 485/em 520 nm, quadratic fit"}, "GST-Cyclin A": {"biological_target": "T3, GST-Cyclin A (Homo sapiens, UniProt P20248)", "T3 construct": "made in house; host or cells: E. coli", "experiment": "Steady-state fluorescence titration of FITC-labelled peptide", "type": "binding", "conditions": "200 nM FITC-labelled peptide, potassium phosphate buffer pH 7.2, 150 mM NaCl, 25°C, ex 485/em 520 nm, quadratic fit"}}, "note": "No end group written: not given here."}
{"compound": "CC(C)C[C@H](NC(=O)[C@H](CCCNC(=N)N)NC(=O)[C@H](CCCNC(=N)N)NC(=O)[C@H](CCCCN)NC(=O)[C@H](C)NC(=O)[C@H](CO)NC(=O)CNC(=O)[C@H](C)NC(=O)[C@@H](NC(=O)[C@@H]1CCCN1C(=O)[C@H](CO)NC(=O)[C@H](CSC(=S)Nc1ccc2c(c1)C(=O)OC21c2ccc(O)cc2Oc2cc(O)ccc21)NC(=O)[C@H](Cc1ccc(O)cc1)NC(=O)[C@H](CCCNC(=N)N)NC(=O)[C@H](CCC(=O)O)NC(=O)[C@H](Cc1c[nH]cn1)NC(=O)[C@@H](NC(=O)[C@H](CCCNC(=N)N)NC(=O)[C@H](CCCCN)NC(=O)[C@H](CCCNC(=N)N)NC(=O)[C@@H]1CCCN1C(=O)CNC(=O)[C@H](C)NC(=O)[C@H](Cc1c[nH]cn1)NC(=O)[C@@H](N)Cc1c[nH]cn1)C(C)C)[C@@H](C)O)C(=O)N[C@@H](Cc1ccccc1)C(=O)NCC(=O)N[C@@H](CCC(=O)O)C(=O)N[C@@H](CC(=O)O)C(=O)O", "note": "[CDKSENS-FITC]", "values": [{"measurement": "Kd", "setting": "GST", "value": "no binding"}, {"measurement": "Kd", "setting": "MBP", "value": "no binding"}]}
{"compound": "HHAGPRKRVHERYCSPTAGSAKRRLFGED [CDKSENS]", "values": [{"measurement": "affinity for cyclin B lower than other cyclins", "setting": "MBP-Cyclin B1", "value": "7–8 fold"}, {"measurement": "Kd", "setting": "[1]", "value": "100 to 200", "unit": "nM"}, {"measurement": "levels of all CDK/Cyclin complexes retained, HS68 relative to HeLa", "setting": "[2]", "value": "net reduction"}, {"measurement": "difference in CDKSENS-Cy3/Ctrl-Cy5 ratio, U20S vs HeLa", "setting": "[3]", "value": "essentially identical values"}, {"measurement": "affinity for CDK2-cyclinA complex versus monomeric CDK2 or cyclin A", "setting": "GST-CDK2/Cyclin A", "value": "significantly higher affinity"}]}
{"compound": "VESSDTIDNVKSKIQDKEGC [Ctrl]", "values": [{"measurement": "Kd", "setting": "GST-CDK2", "value": "no binding"}, {"measurement": "Kd", "setting": "GST-Cyclin A", "value": "no binding"}]}
